{
  "source": "patent US20040019027A1",
  "about": "“Method of treating cerebrotendinous xanthomatosis” (priority 2002, published 2004)",
  "target": "T1, human PXR (Homo sapiens, UniProt O75469)",
  "T1 sequence (O75469 107-434 limits assumed)": "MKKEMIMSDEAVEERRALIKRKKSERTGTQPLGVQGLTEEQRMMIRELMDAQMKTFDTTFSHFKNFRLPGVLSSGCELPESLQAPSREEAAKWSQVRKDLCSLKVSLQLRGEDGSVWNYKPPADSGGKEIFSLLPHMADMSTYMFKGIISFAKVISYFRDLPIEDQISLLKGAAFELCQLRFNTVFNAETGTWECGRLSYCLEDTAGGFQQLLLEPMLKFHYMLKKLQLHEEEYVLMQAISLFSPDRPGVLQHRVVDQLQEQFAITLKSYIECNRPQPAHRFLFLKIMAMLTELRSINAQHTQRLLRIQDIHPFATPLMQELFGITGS",
  "assay": "GAL-human PXR luciferase reporter gene assay in transfected CV-1 cells",
  "details": "2.5 μM hyperforin, 10 μM other ligands, FIG. 8(a)",
  "from_the_text": "For mouse PXR, the data are plotted as percent of maximal foldactivation achieved with pregnenolone-16α-carbonitrile (PCN). […] Experimental conditions were as in FIG. 8(a) using human PXR.\n5β-cholestane-3α, 7α, 12α-triol and 5β-cholestane-3α, 7α, 12α, 25-tetrol are endogenous CYP3A substrates in both human and mouse liver. Furster & Wikvall, Identification of CYP3A4 as the Major Enzyme Responsible for 25-Hydroxylation of 5β-cholestane-3α, 7α, 12α-triol in Human Liver Microsomes, Biochim. Biophys. […] Briefly, a cytomegalovirus expression vector was used to express Gal-PXR fusion proteins. […] Reporter plasmids were constructed by synthesizing three copy response elements that bind to the Gal4 DNA biding domain and subcloned into the transcriptional regulatory region of luciferase reporter gene. β-galactosidase expression vector pCH110, used as internal control, was obtained from Amersham Pharmacia Biotech. CV-1 cells were plated in 96-well plates at a density of 20,000 cells per well and maintained in DMEM supplemented with 10% charcoal/dextran treated calf bovine serum. […] Reporter gene expression was normalized to the b-galactosidase transfection control and expressed as relative light units per OD per minute of β-galactosidase activity or fold induction over solvent control.",
  "note": "“Also recorded” adds a separate entry of the source.",
  "data": [
    {"substance": "hyperforin", "values": [
      {"measurement": "activation of GAL-human PXR (in words)", "value": "fully activated; also recorded: maximally activates"}
    ]}
  ]
}
